Columns and labels:
[1] = tested on: hand OA participants; settings: number of adverse events recorded in treatment group
[2] = tested on: hand OA participants; settings: result in words

CC(C)C[C@H](CN)CC(=O)O [Pregabalin, (3S)-3-(aminomethyl)-5-methylhexanoic acid]
Side effects: Endocrine/Metabolic [1]: 1
Analgesic efficacy over placebo relative to duloxetine (AUSCAN pain outcomes and NRS) [2]: greater analgesic efficacy over placebo than duloxetine over placebo

— patent US11406613B2, “Treatment of osteoarthritis” (ST GEORGE'S HOSPITAL MEDICAL SCHOOL, priority 2016, dated 2022)
